Results from US12178805B2, “Inhibitors of PDE6Delta for use in the prevention and/or treatment of epilepsy and/or neurodegenerative disorders” (ReMYND N.V., priority 2017, dated 2024).

Target: recombinant PDE6δ (Homo sapiens, UniProt O43924)
Details: 20 μM compound

Row | SMILES | competition of the MFC-42826-PDE6δ interaction (response units)
1 | O=C(NCCc1c[nH]c2ccc(Cl)cc12)c1cc(Cc2cc(F)ccc2F)on1 [Compound A] | response units were decreased
2 | O=C(NCCc1c[nH]c2ccc(F)cc12)c1cc(Cc2cc(F)ccc2F)on1 [Compound 6] | response units were decreased
3 | CC(C)c1c(C(=O)Nc2ccccc2)c(-c2ccccc2)c(-c2ccc(F)cc2)n1CC[C@@H](O)C[C@@H](O)CC(=O)O [Atorvastatin, reference compound] | competed for the MFC-42826 interaction with PDE6δ
